Experimental data taken from ChEMBL document CHEMBL4359902, “Development of novel chromeno[4,3-c]pyrazol-4(2H)-one derivates bearing sulfonylpiperazine as antitumor inhibitors targeting PI3Kα” (Eur J Med Chem, 2019).

The chains behind the UniProt entries cited, without tags or fusion partners.
UniProt P42336, whole entry: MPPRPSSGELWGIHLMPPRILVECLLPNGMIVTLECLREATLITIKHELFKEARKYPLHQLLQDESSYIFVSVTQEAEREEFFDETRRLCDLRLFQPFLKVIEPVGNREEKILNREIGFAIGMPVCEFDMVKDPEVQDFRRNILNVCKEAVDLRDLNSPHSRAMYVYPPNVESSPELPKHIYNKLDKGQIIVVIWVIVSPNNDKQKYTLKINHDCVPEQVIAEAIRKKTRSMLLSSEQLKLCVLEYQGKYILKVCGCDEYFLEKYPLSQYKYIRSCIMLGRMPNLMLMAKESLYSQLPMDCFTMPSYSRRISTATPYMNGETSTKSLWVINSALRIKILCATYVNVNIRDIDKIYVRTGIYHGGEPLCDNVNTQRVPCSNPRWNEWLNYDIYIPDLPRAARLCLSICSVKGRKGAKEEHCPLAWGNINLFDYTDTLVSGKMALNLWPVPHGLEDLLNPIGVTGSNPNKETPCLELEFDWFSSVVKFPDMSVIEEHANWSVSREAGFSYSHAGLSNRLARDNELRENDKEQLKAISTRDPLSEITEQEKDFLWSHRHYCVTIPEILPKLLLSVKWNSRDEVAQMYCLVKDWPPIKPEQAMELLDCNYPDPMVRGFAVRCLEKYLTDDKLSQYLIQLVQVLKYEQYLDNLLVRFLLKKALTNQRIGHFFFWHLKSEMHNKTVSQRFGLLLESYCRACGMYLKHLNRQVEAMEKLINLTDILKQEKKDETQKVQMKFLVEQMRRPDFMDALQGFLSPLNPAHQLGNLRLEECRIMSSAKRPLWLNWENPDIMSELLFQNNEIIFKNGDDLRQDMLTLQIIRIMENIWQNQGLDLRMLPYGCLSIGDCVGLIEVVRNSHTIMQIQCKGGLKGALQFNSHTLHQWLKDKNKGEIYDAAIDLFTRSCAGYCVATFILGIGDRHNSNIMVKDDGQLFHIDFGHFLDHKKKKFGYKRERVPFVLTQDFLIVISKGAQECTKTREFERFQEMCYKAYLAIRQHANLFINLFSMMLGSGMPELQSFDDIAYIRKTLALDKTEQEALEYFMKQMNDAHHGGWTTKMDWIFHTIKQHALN

Key:
[1] = molecular target: Phosphatidylinositol 4,5-bisphosphate 3-kinase catalytic subunit alpha isoform (Homo sapiens, UniProt P42336); experiment: Potency index, ratio of LY294002 IC50 to compound IC50 for inhibition of PI3Kalpha (unknown origin) using diC8-PI(4,5)P2 as substrate incubated for 3 hrs by fluorescence polarization assay
Homo sapiens [2] = organism: Homo sapiens; experiment: Selectivity index, ratio of IC50 for PI3Kbeta (unknown origin) to IC50 for PI3Kalpha (unknown origin) using diC8-PI(4,5)P2 as substrate
Homo sapiens [3] = organism: Homo sapiens; experiment: Selectivity index, ratio of IC50 for PI3Kgamma (unknown origin) to IC50 for PI3Kalpha (unknown origin) using diC8-PI(4,5)P2 as substrate
Homo sapiens [4] = organism: Homo sapiens; experiment: Selectivity index, ratio of IC50 for PI3Kdelta (unknown origin) to IC50 for PI3Kalpha (unknown origin) using diC8-PI(4,5)P2 as substrate

Ratio IC50 [1]: 53
Ratio IC50 (Homo sapiens [2]): 13
Ratio IC50 (Homo sapiens [3]): 9
Ratio IC50 (Homo sapiens [4]): 13
Compound: O=c1oc2ccccc2c2nn(CN3CCN(S(=O)(=O)c4ccc(Cl)c([N+](=O)[O-])c4)CC3)cc12
